The structures appear in SMILES notation. Values joined by “and” are separate entries in the source; they are usually repeats but may differ in a detail not shown here. Equal values may be shown once. The entries are a selection whose mix differs from that of the whole data set.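 Assay: single dose, 48 h. Readout: percent growth (0 = no net growth; negative = cell death). Active: <10.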 Some salts or complexes appear as unconnected parts, following the source record. Active and inactive are the calls of the source.

One assay relates to SF-268 CNS. As to the kind of experiment: NCI-60 one-dose screen, 48 h (100 = growth as untreated, 0 = no growth, -100 = all killed). Conditions: 10 µM.
For the compound `Nc1cc([N+](=O)[O-])cc([N+](=O)[O-])c1O`, the growth was inactive: 98% and inactive: 102%.
Consider `CC(C)N1CCN(CCOC(=O)C(O)(c2ccccc2)c2ccccc2)CC1`, for which the growth was inactive: 99.5%.
The same measure, in the same setting: the figure for `CC(C)N(CCCl)C(C)C` is inactive: 110%; for `O=[N+]([O-])OCCOc1ccc([N+](=O)[O-])cc1[N+](=O)[O-]` it is inactive: 104%; for `O=[N+]([O-])N(CCOC(N(F)F)(N(F)F)N(F)F)CC([N+](=O)[O-])([N+](=O)[O-])[N+](=O)[O-]` it is inactive: 104%.
Same read-out and setting: next, `NN/C(N)=N/[N+](=O)[O-]`: inactive: 114%.

A further assay relates to SF-295 CNS. The assay is described as above. The settings on record: 10 µM.
In the case of `CCCOP(=S)(Cl)OCCC`, the growth is inactive: 97.4%.
Still for that read-out and setting: next, `O=C(O)C1(O)c2ccccc2-c2ccccc21`: inactive: 129%; `Nc1cccc(Cl)c1.O=[N+]([O-])c1cc([N+](=O)[O-])c(O)c([N+](=O)[O-])c1`: inactive: 101%; `OCCSCCO`: inactive: 101%.
Same read-out and setting: the figure for `Nc1cc([As](Cl)Cl)cc(N)c1O` is inactive: 107%.
Same read-out and setting: the figure for `O=[N+]([O-])N(CCN(CC(Br)([N+](=O)[O-])[N+](=O)[O-])[N+](=O)[O-])CC(Br)([N+](=O)[O-])[N+](=O)[O-]` is inactive: 86.2%.
Consider `O=C1N([N+](=O)[O-])CCN1[N+](=O)[O-]`, for which the growth is inactive: 101%.
Turning to `CC[N+]([O-])(CC)Cc1ccccc1.O=[N+]([O-])c1cc([N+](=O)[O-])c(S(=O)(=O)O)c([N+](=O)[O-])c1`, the growth was inactive: 101%.
Still for that read-out and setting: next, `CP(=O)(OCCCl)N(CCCl)CCCl` (stereo not given): inactive: 93.3%.
On the same count and under the same terms, next, `CN(CCO)CCCl.O=[N+]([O-])c1cc([N+](=O)[O-])c(O)c([N+](=O)[O-])c1`: inactive: 103%.
On the same count and under the same terms, next, `CCN(CC)CCOC(=O)C(O)(c1ccccc1)c1cc(C)c(C)c(C)c1C` (stereo not given): inactive: 109%.
As to `CCN(CC)CCOC(=O)C(O)(c1ccccc1)c1cc(C)cc(C)c1C` (stereo not given), the growth is inactive: 107%.
Same read-out and setting: the figure for `CCN(C)CC.O=[N+]([O-])c1cc([N+](=O)[O-])c(O)c([N+](=O)[O-])c1` is inactive: 95.3%.
Same read-out and setting: the figure for `O=C(Cl)c1c([N+](=O)[O-])cc([N+](=O)[O-])cc1[N+](=O)[O-]` is inactive: 108%; for `COc1ccc(C(O)(C(=O)OCCN2CCCCC2)c2ccc(OC)cc2)cc1` it is inactive: 103%.
The same measure, in the same setting: the figure for `Cc1c([N+](=O)[O-])c(C)c([N+](=O)[O-])c(C)c1[N+](=O)[O-]` is inactive: 104%; for `O=C(OCCN1CCCCCCCC1)C(O)(c1ccccc1)c1ccccc1` it is inactive: 110%.
Consider `CN/C(N)=N/[N+](=O)[O-]`, for which the growth was inactive: 110%.
In the case of `CCOC(=O)Nc1c([N+](=O)[O-])cc([N+](=O)[O-])cc1[N+](=O)[O-]`, the growth was inactive: 110%.
`O=[N+]([O-])c1cc([N+](=O)[O-])c(Nc2nnnn2CCO)c([N+](=O)[O-])c1`: the growth is inactive: 108%.
Still for that read-out and setting: the figure for `Cc1c([N+](=O)[O-])cc([N+](=O)[O-])c(Br)c1[N+](=O)[O-]` is inactive: 110%; for `CN1CCN(CCOC(=O)C(O)(c2ccccc2)c2ccccc2)CC1` it is inactive: 101%.
On the same count and under the same terms, next, `O=[N+]([O-])c1cc([N+](=O)[O-])c(O)c([N+](=O)[O-])c1.c1ccc([I+]c2ccccc2)cc1`: inactive: 59.8%; `Nc1cc([N+](=O)[O-])cc([N+](=O)[O-])c1O`: inactive: 101%.
In the case of `CC(C)N1CCN(CCOC(=O)C(O)(c2ccccc2)c2ccccc2)CC1`, the growth was inactive: 97.9%.
Same read-out and setting: the figure for `CC(C)N(CCCl)C(C)C` is inactive: 115%; for `O=[N+]([O-])OCCOc1ccc([N+](=O)[O-])cc1[N+](=O)[O-]` it is inactive: 103%; for `O=[N+]([O-])N(CCOC(N(F)F)(N(F)F)N(F)F)CC([N+](=O)[O-])([N+](=O)[O-])[N+](=O)[O-]` it is inactive: 94.2%.
The same measure, in the same setting: next, `NN/C(N)=N/[N+](=O)[O-]`: inactive: 122%.

For a further assay, the system named is SF-539 CNS. Described as above. Conditions: 10 µM.
In the case of `CCCOP(=S)(Cl)OCCC`, the growth was inactive: 97.6%.
On the same count and under the same terms, next, `CN(C)CCS`: inactive: 105% and inactive: 99.6%.
On the same count and under the same terms, next, `O=C(O)C1(O)c2ccccc2-c2ccccc21`: inactive: 99.9% and inactive: 93.9%; `Nc1cccc(Cl)c1.O=[N+]([O-])c1cc([N+](=O)[O-])c(O)c([N+](=O)[O-])c1`: inactive: 97.1%; `OCCSCCO`: inactive: 114%.
Still for that read-out and setting: next, `Nc1cc([As](Cl)Cl)cc(N)c1O`: inactive: 77.7%; `O=[N+]([O-])N(CCN(CC(Br)([N+](=O)[O-])[N+](=O)[O-])[N+](=O)[O-])CC(Br)([N+](=O)[O-])[N+](=O)[O-]`: inactive: 94.4%; `O=C1N([N+](=O)[O-])CCN1[N+](=O)[O-]`: inactive: 101%.
Consider `CC[N+]([O-])(CC)Cc1ccccc1.O=[N+]([O-])c1cc([N+](=O)[O-])c(S(=O)(=O)O)c([N+](=O)[O-])c1`, for which the growth is inactive: 91.8%.
Still for that read-out and setting: the figure for `CP(=O)(OCCCl)N(CCCl)CCCl` (stereo not given) is inactive: 85.8%.
Still for that read-out and setting: the figure for `CN(CCO)CCCl.O=[N+]([O-])c1cc([N+](=O)[O-])c(O)c([N+](=O)[O-])c1` is inactive: 98.7%; for `CCN(CC)CCOC(=O)C(O)(c1ccccc1)c1cc(C)c(C)c(C)c1C` (stereo not given) it is inactive: 94.2%; for `CCN(CC)CCOC(=O)C(O)(c1ccccc1)c1cc(C)cc(C)c1C` (stereo not given) it is inactive: 101%.
Same read-out and setting: the figure for `CCN(C)CC.O=[N+]([O-])c1cc([N+](=O)[O-])c(O)c([N+](=O)[O-])c1` is inactive: 91.9%; for `O=C(Cl)c1c([N+](=O)[O-])cc([N+](=O)[O-])cc1[N+](=O)[O-]` it is inactive: 92.4%.
As for `COc1ccc(C(O)(C(=O)OCCN2CCCCC2)c2ccc(OC)cc2)cc1`, the growth is inactive: 103%.
The same measure, in the same setting: the figure for `Cc1c([N+](=O)[O-])c(C)c([N+](=O)[O-])c(C)c1[N+](=O)[O-]` is inactive: 108%; for `O=C(OCCN1CCCCCCCC1)C(O)(c1ccccc1)c1ccccc1` it is inactive: 95.4%.
On to `CN/C(N)=N/[N+](=O)[O-]`, for which the growth is inactive: 104%.
Turning to `CCOC(=O)Nc1c([N+](=O)[O-])cc([N+](=O)[O-])cc1[N+](=O)[O-]`, the growth was inactive: 102%.
Still for that read-out and setting: the figure for `O=[N+]([O-])c1cc([N+](=O)[O-])c(Nc2nnnn2CCO)c([N+](=O)[O-])c1` is inactive: 108%.
On the same count and under the same terms, the figure for `Cc1c([N+](=O)[O-])cc([N+](=O)[O-])c(Br)c1[N+](=O)[O-]` is inactive: 115%.
Still for that read-out and setting: the figure for `CN1CCN(CCOC(=O)C(O)(c2ccccc2)c2ccccc2)CC1` is inactive: 98.5%; for `O=[N+]([O-])c1cc([N+](=O)[O-])c(O)c([N+](=O)[O-])c1.c1ccc([I+]c2ccccc2)cc1` it is inactive: 67.8%; for `Nc1cc([N+](=O)[O-])cc([N+](=O)[O-])c1O` it is inactive: 96.2% and inactive: 101%.
In the case of `CC(C)N1CCN(CCOC(=O)C(O)(c2ccccc2)c2ccccc2)CC1`, the growth is inactive: 96.3%.
The same measure, in the same setting: the figure for `CC(C)N(CCCl)C(C)C` is inactive: 112%; for `O=[N+]([O-])OCCOc1ccc([N+](=O)[O-])cc1[N+](=O)[O-]` it is inactive: 96.5%; for `O=[N+]([O-])N(CCOC(N(F)F)(N(F)F)N(F)F)CC([N+](=O)[O-])([N+](=O)[O-])[N+](=O)[O-]` it is inactive: 114%.
Still for that read-out and setting: the figure for `NN/C(N)=N/[N+](=O)[O-]` is inactive: 111%.

The values are drawn from PubChem BioAssay (NCI).
